We go through two variants from publication PMC10959724 (2024).

B1: wildtype TBK1 (TANK-binding kinase 1), mCitrine-Protein A fusion [not stated] / optineurin, NanoLuc-tagged [not stated] (parent complex)
chain 1: MQSTSNHLWLLSDILGQGATANVFRGRHKKTGDLFAIKVFNNISFLRPVDVQMREFEVLKKLNHKNIVKLFAIEEETTTRHKVLIMEFCPCGSLYTVLEEPSNAYGLPESEFLIVLRDVVGGMNHLRENGIVHRDIKPGNIMRVIGEDGQSVYKLTDFGAARELEDDEQFVSLYGTEEYLHPDMYERAVLRKDHQKKYGATVDLWSIGVTFYHAATGSLPFRPFEGPRRNKEVMYKIITGKPSGAISGVQKAENGPIDWSGDMPVSCSLSRGLQVLLTPVLANILEADQEKCWGFDQFFAETSDILHRMVIHVFSLQQMTAHKIYIHSYNTATIFHELVYKQTKIISSNQELIYEGRRLVLEPGRLAQHFPKTTEENPIFVVSREPLNTIGLIYEKISLPKVHPRYDLDGDASMAKAITGVVCYACRIASTLLLYQELMRKGIRWLIELIKDDYNETVHKKTEVVITLDFCIRNIEKTVKVYEKLMKINLEAAELGEISDIHTKLLRLSSSQGTIETSLQDIDSRLSPGGSLADAWAHQEGTHPKDRNVEKLQVLLNCMTEIYYQFKKDKAERRLAYNEEQIHKFDKQKLYYHATKAMTHFTDECVKKYEAFLNKSEEWIRKMLHLRKQLLSLTNQCFDIEEEVSKYQEYTNELQETLPQKMFTASSGIKHTMTPIYPSSNTLVEMTLGMKKLKEEMEGVVKELAENNHILERFGSLTMDGGLRNVDCL
chain 2: MSHQPLSCLTEKEDSPSESTGNGPPHLAHPNLDTFTPEELLQQMKELLTENHQLKEAMKLNNQAMKGRFEELSAWTEKQKEERQFFEIQSKEAKERLMALSHENEKLKEELGKLKGKSERSSEDPTDDSRLPRAEAEQEKDQLRTQVVRLQAEKADLLGIVSELQLKLNSSGSSEDSFVEIRMAEGEAEGSVKEIKHSPGPTRTVSTGTALSKYRSRSADGAKNYFEHEELTVSQLLLCLREGNQKVERLEVALKEAKERVSDFEKKTSNRSEIETQTEGSTEKENDEEKGPETVGSEVEALNLQVTSLFKELQEAHTKLSEAELMKKRLQEKCQALERKNSAIPSELNEKQELVYTNKKLELQVESMLSEIKMEQAKTEDEKSKLTVLQMTHNKLLQEHNNALKTIEELTRKESEKVDRAVLKELSEKLELAEKALASKQLQMDEMKQTIAKQEEDLETMTILRAQMEVYCSDFHAERAAREKIHEEKEQLALQLAVLLKENDAFEDGGRQSLMEMQSRHGARTSDSDQQAYLVQRGAEDRDWRQQRNIPIHSCPKCGEVLPDIDTLQIHVMDCII

One assay covers variants of B1. Description: LuTHy-BRET; live HEK293 cells; parent: 1; read off a plot. (In general: In BRET a luciferase serves as donor, and the signal depends on an acceptor being close.)
Consider chain 1 E696K, for which the ratio to parent was approximately 0.06.

chain 1 R47H: the ratio to parent was approximately 0.99.

Variants of B1 are the subject of another assay. Description: LuTHy-BRET donor saturation assay; live HEK293 cells; read at Acceptor:Donor = 4 (highest point of the curve); parent: 0.066; read off a plot.
In the case of chain 1 E696K, the response is approximately 0.012.
